RAD52 inh: RAD52 DNA annealing inhibitors, primary screen, biochemical, FRET, single point, set 2. recombinant RAD52 DNA annealing, FRET fluorescence. AID 651710, 2012. 0.46% of 360,000 active. inhibition, % at 18.7 µM. DNA repair protein RAD52 homolog (Homo sapiens), P43351;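 active means every replicate showing at least 50% inhibition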
SIRT5 block: SIRT5 desuccinylase inhibitors, primary screen, biochemical, fluorescence imaging, single point, set 5; NAD-dependent protein deacylase sirtuin-5, mitochondrial (Homo sapiens), Q9NXA8; Purified SirT5, succinyl-peptide AMC, trypsin-coupled fluorescence; inhibition, % at 15 µM; 1.1% of 330,000 active; AID 652115, 2013; in the data active means inhibition above about 15%
RAD54 branch: inhibitors of human RAD54 branch migration, primary screen, biochemical, fluorescence, single point | DNA repair and recombination protein RAD54-like (Homo sapiens), Q92698 | RAD54 Holliday junction branch migration, FAM/BHQ fluorescence | inhibition, % at 10.4 µM | 0.14% of 360,000 active | AID 602329, 2012;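 active means mean normalized replicate activity at least 40 and at least half of replicates scoring 40 or more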;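 further: 0% = median of neutral control wells and 100% = median of positive control wells; inhibitors cause a drop in the FAM fluorescence signal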
MLL AF4-AF9 inh: inhibitors of AF4 peptide binding to AF9, primary screen, biochemical, AlphaScreen, biotin-AF4 peptide, FLAG-AF9, single point. 0.47% of 350,000 active. Protein AF-9 (Homo sapiens), P42568. inhibition, % at 10 µM. AID 651704, 2012;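 active means every replicate reaching a set inhibition limit, whatever the replicate mean, cut at about 25% in these data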;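 further: 0% = plate neutral control median and 100% = total signal loss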
E-sel inducer: E-selectin induction in HUVECs, primary screen, imaging, HUVEC, immunofluorescence imaging, single point; normalized: neutral wells 0, TNF-alpha wells 100; activation, % at 7.58 µM; 0.37% of 260,000 active;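 active means mean E-selectin-positive cell signal at least 10% of the positive control, reached in at least 60% of replicates, without over 20% cell loss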
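material = human umbilical vein endothelial cells (HUVEC), E-selectin induction | quantity = 3,000 cells/well | medium = EGM-2 growth medium on 0.1% gelatin-coated wells | technique = immunofluorescence imaging | read-out basis = % PE-positive cells | control set = TNF-alpha positive control, DMSO neutral control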
UUG fidelity: modulators of yeast start codon fidelity, primary screen, whole organism, S. cerevisiae, single point, plate reader | AID 602363, 2012 | S. cerevisiae UUG-firefly luciferase reporter, luminescence/redox ratio | activity score, % at 18.7 µM | hit rate 0.13% among 350,000;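 active = replicate mean at a twofold rise or more, about +100% in these data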;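 also: firefly luciferase made from a UUG start codon reports start codon fidelity; reporter light over untreated wells divided by growth signal over untreated wells; some hits fall short of that in this replicate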
* hit, by the source's call. Shown are actives, neighbours in structure and some others; about 1.8% of the full set was active somewhere.

What do the screens show for `CC[C@]12C(=O)N(C)C[C@H]([C@@H]3C(=O)N(C)C(=O)[C@@H]31)N2C(=O)c1ccc(C)cc1`?
RAD52 inh: -8; SIRT5 block: -1; RAD54 branch: -1; MLL AF4-AF9 inh: 51*; E-sel inducer: 0; UUG fidelity: -2

Results for Cc1ccc(C(=O)N2[C@@H]3CN(C)C(=O)[C@@]2(C)[C@H]2C(=O)N(C)C(=O)[C@@H]32)cc1 ?
RAD52 inh: -35; SIRT5 block: 0; RAD54 branch: -2; MLL AF4-AF9 inh: -3; E-sel inducer: 0; UUG fidelity: -9

Results for O=C(Nc1ccc(F)cc1)Nc1ccc2c(c1)[C@H]1C[C@@H](CC(=O)N3CCCCC3)O[C@H](CO)[C@H]1O2 ?
RAD54 branch: -13; E-sel inducer: 0; UUG fidelity: -4

What do the screens show for `CN1C(=O)/C(=C2\SC(N3CCCCCC3)=NC2=O)c2ccccc21`?
RAD52 inh: 2; SIRT5 block: 32*; RAD54 branch: 15; UUG fidelity: -14

How did CCCN1C(=O)/C(=C2\SC(N3CCCCC3)=NC2=O)c2ccccc21 do in these assays?
RAD54 branch: 11; UUG fidelity: -10

How did CN(C)CCNC(=O)c1cccc(S(=O)(=O)Nc2ccccc2F)c1 do in these assays?
RAD52 inh: 4; SIRT5 block: 30*; MLL AF4-AF9 inh: 0

How did O=C(Cc1ccccn1)N1CC(=O)N2[C@@H](CO)[C@H](c3ccc(C#CC4CCCCC4)cc3)[C@@H]2C1 do in these assays?
RAD52 inh: -1; SIRT5 block: -3; MLL AF4-AF9 inh: 7; E-sel inducer: 0

How did CSc1nc(SCC(=O)O)c2sc3nc(-c4ccccc4)c4c(c3c2n1)CCC4 do in these assays?
RAD52 inh: -1; SIRT5 block: 19*; RAD54 branch: 5; MLL AF4-AF9 inh: -19; UUG fidelity: -10

Results for CSc1nc(N(C)CCO)c2sc3nc(-c4ccco4)c4c(c3c2n1)CCC4 ?
RAD54 branch: -6; UUG fidelity: 4

How did COc1ccc(S(=O)(=O)N(C)C[C@@H]2Oc3c(NC(=O)c4cc(C)nn4C)cccc3C(=O)N([C@H](C)CO)C[C@@H]2C)cc1 do in these assays?
RAD52 inh: 2; SIRT5 block: 4; RAD54 branch: 7; MLL AF4-AF9 inh: -16; E-sel inducer: 0; UUG fidelity: -12

How did COc1ccc(CN(C)C[C@H]2Oc3ccc(NC(=O)Nc4c(C)noc4C)cc3C(=O)N([C@@H](C)CO)C[C@H]2C)cc1 do in these assays?
RAD52 inh: 8; SIRT5 block: -3; RAD54 branch: -1; MLL AF4-AF9 inh: -2; E-sel inducer: 239*; UUG fidelity: -21

What do the screens show for `COc1ccc(NC(=O)Nc2ccc3c(c2)C(=O)N([C@@H](C)CO)C[C@H](C)[C@@H](CN(C)C)O3)cc1`?
RAD52 inh: 8; SIRT5 block: -3; RAD54 branch: 8; MLL AF4-AF9 inh: -1; E-sel inducer: 41*; UUG fidelity: 3

How did COc1ccc(CN(C)C[C@@H]2Oc3ccc(NC(=O)Nc4ccccc4)cc3C(=O)N([C@H](C)CO)C[C@H]2C)cc1 do in these assays?
RAD52 inh: 22; SIRT5 block: 2; RAD54 branch: 57*; MLL AF4-AF9 inh: -4; E-sel inducer: 0; UUG fidelity: -10

How did COc1ccc(NC(=O)Nc2ccc3c(c2)C(=O)N([C@H](C)CO)C[C@H](C)[C@@H](CN(C)Cc2ccncc2)O3)cc1 do in these assays?
RAD52 inh: 16; SIRT5 block: -3; RAD54 branch: -14; MLL AF4-AF9 inh: -5; E-sel inducer: 170*; UUG fidelity: -10

Results for Cc1ccc(S(=O)(=O)Nc2ccc3c(c2)C(=O)N([C@@H](C)CO)C[C@H](C)[C@H](CN(C)C(=O)Nc2c(C)noc2C)OCCCC[C@@H](C)O3)cc1 ?
RAD52 inh: -6; SIRT5 block: 1; MLL AF4-AF9 inh: 0

How did CO[C@H]1CN(C)C(=O)c2ccc(NC(=O)Nc3ccc(Cl)cc3)cc2OC[C@H](C)N(C)C[C@@H]1C do in these assays?
RAD52 inh: 25; SIRT5 block: 8; MLL AF4-AF9 inh: 1; E-sel inducer: 0

How did O=C(O)[C@@H]1[C@@H](CO)[C@@H]2Cn3c(ccc(-c4ccccc4)c3=O)[C@@H]2N1CCc1ccccc1 do in these assays?
RAD52 inh: -11; SIRT5 block: -3; RAD54 branch: -3; MLL AF4-AF9 inh: 0; E-sel inducer: 1; UUG fidelity: 13

How did COc1ccc(CN(C)C[C@@H]2Oc3ccc(NC(=O)c4ccncc4)cc3C(=O)N([C@@H](C)CO)C[C@H]2C)cc1 do in these assays?
RAD52 inh: -5; SIRT5 block: -5; RAD54 branch: 12; MLL AF4-AF9 inh: -1; E-sel inducer: 56*; UUG fidelity: -13

Results for CC(C)(C)OC(=O)N1CCCC(C(=O)Nc2cccc(C(=O)NCCCCc3ccccc3)c2)C1 (stereo not given) ?
RAD52 inh: 4; SIRT5 block: 17*; RAD54 branch: -4; MLL AF4-AF9 inh: -3; E-sel inducer: 1; UUG fidelity: -12

Results for CC(C)C(=O)Nc1cccc(COc2ccccc2CN(Cc2ccccc2)C(=O)OC(C)(C)C)c1 ?
RAD52 inh: -9; SIRT5 block: 18*; RAD54 branch: -16; MLL AF4-AF9 inh: 0; E-sel inducer: 5; UUG fidelity: 12

Results for CC(C)(C)OC(=O)N(CCc1ccccc1)Cc1ccccc1OCc1cccc(NC(=O)C2CCCC2)c1 ?
RAD52 inh: 0; SIRT5 block: 29*; RAD54 branch: -25; MLL AF4-AF9 inh: -2; E-sel inducer: -2; UUG fidelity: -1

How did CCCNC(=O)C[C@H]1C[C@@H]2c3cc(N(C)C)ccc3O[C@@H]2[C@@H](CO)O1 do in these assays?
RAD52 inh: -123; SIRT5 block: 5; RAD54 branch: -22; MLL AF4-AF9 inh: 0; E-sel inducer: 0; UUG fidelity: -23

How did O=C(N[C@H]1CC[C@@H](CCNS(=O)(=O)Cc2ccccc2)O[C@@H]1CO)c1ccc2c(c1)OCO2 do in these assays?
RAD52 inh: -11; SIRT5 block: 9; RAD54 branch: 9; MLL AF4-AF9 inh: 5; E-sel inducer: 0; UUG fidelity: 11

Results for CC(=O)N1[C@H](CO)[C@@H]2c3ccccc3N(C(=O)c3ccccc3)C[C@@H]21 ?
RAD54 branch: 2; E-sel inducer: 0; UUG fidelity: -12

Already shown: entries from further up.
What do the screens show for `CC[C@]12C(=O)N(C)C[C@H]([C@@H]3C(=O)N(C)C(=O)[C@@H]31)N2C(=O)c1ccc(C)cc1`?
RAD52 inh: -8; SIRT5 block: -1; RAD54 branch: -1; MLL AF4-AF9 inh: 51*; E-sel inducer: 0; UUG fidelity: -2

Results for Cc1ccc(C(=O)N2[C@@H]3CN(C)C(=O)[C@@]2(C)[C@H]2C(=O)N(C)C(=O)[C@@H]32)cc1 ?
RAD52 inh: -35; SIRT5 block: 0; RAD54 branch: -2; MLL AF4-AF9 inh: -3; E-sel inducer: 0; UUG fidelity: -9

Screens from PubChem BioAssay.
